HDAC3 inhib: inhibitors of human histone deacetylase 3. recombinant HDAC3, fluorogenic peptide/trypsin coupled, fluorescence. inhibition, % at 8.3 µM. 0.15% of 320,000 active. AID 2718; in the data active = inhibition above about 26%, passing the limit was not always enough
NALP1 yeast inh: blocks the NALP1 inflammasome reconstituted in yeast | 0.61% of 280,000 active | S. cerevisiae NALP1/ASC/caspase-1 growth, X-gal OD620, 72 h | inhibition, % at 10 µM | AID 2071; in the data active = inhibition mostly above about 24%, no sharp cut-off; inactive = mostly below about 32%
MC4R antag cAMP: blocks human MC4R cAMP signaling. P32245. MC4R-expressing cells, MTII-stimulated cAMP, LANCE TR-FRET. inhibition, % at 6.5 µM. 0.48% of 360,000 active. AID 540295;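 active = inhibition above its plate's cutoff, the mean of tested wells on that plate plus 3 SD, cut at about 29% in these data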
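Assay system: U2OS-MC4R stable cell line; Also added: Melanotan II; Technique: Eu-cAMP/anti-cAMP TR-FRET, emission 671 nm; Times: 30-min compound, 1-h challenge, 1-h detection, room temperature.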
ALR H2O2 inh: inhibitors of human ALR sulfhydryl oxidase, primary screen, biochemical, H2O2 detection, HRP-luminol luminescence, single point. 290,000 compounds, 3.8% hits. inhibition, % (concentration not given with the values). purified ALR, DTT oxidation. AID 485317, 2010;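 active means mean and each replicate at 75% or more; inconclusive means only one of the two met; inactive means neither met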;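 further: stock transfer was 7.5 nL into about 7.5 µL; 0% = neutral wells and 100% = wells with inactivated enzyme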
Yeast UUG start: modulators of yeast start codon fidelity, primary screen, whole organism, S. cerevisiae, single point, plate reader. S. cerevisiae UUG-firefly luciferase reporter, luminescence/redox ratio. activity score, % at 18.7 µM. actives 0.13% (n = 350,000);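 active = replicate mean at a twofold rise or more, about +100% in these data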;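 note: firefly luciferase made from a UUG start codon reports start codon fidelity; reporter light over untreated wells divided by growth signal over untreated wells; some hits fall short of that in this replicate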
MC4R barr agon: activates human MC4R beta-arrestin recruitment; P32245; U2OS MC4R beta-arrestin complementation, luminescence; percent of melanotan II response, DMSO zero; activation, % at 8.9 µM; 0.98% of 360,000 active;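 active = activation above a per-plate cutoff, the mean activation of sample wells on that plate plus 3 SD, cut at about 8% in these data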
Hits are given with their value; - = inactive; . = not tested or not shown. Most compounds without a hit are left out; they make up all but 4.2% or so of the library.

SMILES	HDAC3 inhib	NALP1 yeast inh	MC4R antag cAMP	ALR H2O2 inh	Yeast UUG start	MC4R barr agon
Cc1cc(Br)cc(C)c1OCCCCN(C)C	-	-	-	93	-	-
O=C(NC1CCCCC1)N[C@@H]1CC[C@H](CCNS(=O)(=O)c2ccc(F)cc2)O[C@@H]1CO	.	.	.	.	-	.
CC(C)C#Cc1ccc2c(c1)O[C@H](CN(C)C(=O)c1cccc(F)c1)[C@@H](C)CN([C@H](C)CO)S2(=O)=O	.	.	.	.	-	.
Cc1cc(C)nc(/N=C(\N)Nc2ccc(OCCC(C)C)cc2)n1	-	33	-	-	-	-
CC(=O)/C=C(\C)Nc1ccccc1O	-	43	-	-	-	-
Cc1cccc(N2C(=O)CC(Sc3nccc(C)n3)C2=O)c1 (stereo not given)	-	-	-	.	-	-
Cc1cccc(N2C(=O)CC(Sc3ncn[nH]3)C2=O)c1 (stereo not given)	-	38	-	-	-	-
Cc1ccc(N2C(=O)CC(Sc3ncn[nH]3)C2=O)cc1C (stereo not given)	-	40	-	-	-	-
CC(=O)C1CCC2C3CC=C4CC(SC(=N)N)CCC4(C)C3CCC12C (stereo not given)	.	.	-	.	.	15
C[C@H]1CCCCO[C@@H](CN(C)C(=O)NC2CCCCC2)[C@@H](C)CN([C@@H](C)CO)C(=O)c2cc(NC(=O)c3ccncc3)ccc2O1	.	.	.	.	-	.
CCCNC(=O)C[C@H]1CC[C@@H]2[C@@H](COc3ccc(NC(=O)Nc4ccccc4F)cc3C(=O)N2C)O1	.	.	.	.	-	.
CCOC(=O)Cn1cncc1-c1ccc([N+](=O)[O-])cc1	-	-	-	97	-	-
CCOc1ccc(NC(=O)Cn2cncc2-c2ccc([N+](=O)[O-])cc2)cc1	-	-	-	-	-	-
Cc1ccc(Nc2nc(=O)[nH]nc2C)cc1	-	-	-	-	-	-
Cc1n[nH]c(=O)nc1Nc1ccc(O)cc1	-	-	-	89	-	-
CO[C@H]1CN(C)C(=O)c2ccc(NC(=O)C3CCC3)cc2OC[C@@H](C)N(Cc2cccnc2)C[C@H]1C	.	.	.	.	-	.
O=C(CSc1ccncc1)Nc1ccc(S(=O)(=O)Nc2nccs2)cc1	-	-	-	99	.	-
O=S(=O)(Nc1nccs1)c1ccc(Br)cc1	-	-	-	-	.	-
Cc1ccc(S(C)(=O)=O)cc1C(=O)Nc1ccc(S(=O)(=O)Nc2nccs2)cc1	-	.	-	97	-	-
O=S(=O)(Nc1ccc(S(=O)(=O)Nc2nccs2)cc1)c1ccc(Br)cc1	43	-	-	-	-	-
CN(C)CC(=O)N[C@H]1CC[C@@H](CCNC(=O)C2CCCCC2)O[C@H]1CO	.	.	.	.	-	.
C[C@@H]1CCCCO[C@@H](CN(C)S(C)(=O)=O)[C@H](C)CN([C@H](C)CO)C(=O)c2cc(NC(=O)Nc3ccccc3)ccc2O1	.	.	.	.	-	.
CNC(=O)C[C@@H]1CC[C@@H]2[C@H](COC[C@H](O)CN2Cc2ccncc2)O1	.	.	.	.	-	.
COC1=C/C(=C/c2c(O)c(C#N)c3ccccn23)C=CC1=O	-	-	-	91	.	-
COc1cc(OC)cc(C(=O)c2c(C)c(C#N)c3ccccn23)c1	.	-	-	.	-	-
SMILES	HDAC3 inhib	NALP1 yeast inh	MC4R antag cAMP	ALR H2O2 inh	Yeast UUG start	MC4R barr agon
FC(F)(F)C1=CC(c2ccc(Br)cc2)=NCCN1	-	-	-	100	-	-
COCCCNC(=O)c1cc2c(-c3ccc(Cl)cc3)nn(C)c2s1	-	-	-	-	-	-
COCCNC(=O)c1cc2c(-c3ccc(Cl)cc3)nn(C)c2s1	-	-	-	92	-	-
Cn1nc(-c2ccc(Cl)cc2)c2cc(C(=O)NCCCN3CCCC3)sc21	-	-	-	94	-	-
CCCCNC(=O)c1cc2c(-c3ccc(Cl)cc3)nn(C)c2s1	-	-	-	-	-	-
Cc1ccc(CNC(=O)c2cc3c(-c4ccc(Cl)cc4)nn(C)c3s2)o1	-	-	-	80	-	-
CC(C)(C)c1cc(C(=O)O)c(CN2CCCCC2)o1	-	38	-	-	-	-
Cc1oc(C(C)(C)C)cc1C(=O)NC1CCN(Cc2ccccc2)CC1	-	-	-	.	-	-
Cc1ccc(SCC(=O)Nc2ccc(-c3nc4ccccc4[nH]3)cc2)cc1	-	-	-	-	.	8.3
Cc1ccc2nc(-c3ccc(SCC(=O)Nc4nnc(C)s4)nc3)[nH]c2c1	.	-	-	.	.	11

Compound activity deposited in PubChem by several laboratories.
